Test results taken from patent publication US6297281A, “Association of no syntase inhibitors with trappers of oxygen reactive forms” (priority 1996, dated 2001).

What was measured:
inducible NO synthase [1] = target: T1, inducible NO synthase (Mus musculus, UniProt P29477); test: In vitro effect on inducible NO synthase of murine macrophages J774A1 (formation of citrulline); type: biochemical; details: NO synthase isolated from LPS/IFN-γ activated J774A1 macrophages, pH 7.4
T1 construct: The NO synthase is isolated with an extraction buffer; endogenous in cells; sonicated, 100,000 g ultracentrifuged extract
Procedure: 2) In vitro effect on inducible NO synthase of murine macrophages J774A1
Murine macrophages J774A1 produce a large quantity of nitrogen monoxide after activation by lipopolysaccharides (LPS) and interferon-γ(IFN-γ). The cells are cultivated in DMEM medium (Dulbecco's Modified Eagle Medium) enriched with 10% foetal calf serum at 37° C. under an atmosphere of 5% CO2 after activation by LPS and IFN-γ. They are seeded in a quantity of 5000 cells/cm^2 in 150 cm^2 bottles. The incubations are carried out in the presence of LPS (1g/ml) and murine IFN-γ (50 U/ml) in DMEM enriched with 10% foetal calf serum. The NO synthase is isolated with an extraction buffer (HEPES 50 mM, pH 7.4, dithiothreitol 0.5 mM, pepstatin A 1 mg/ml, leupeptin 1 mg/ml, soya trypsin inhibitor 1 mg/ml, antipain 1 mg/ml, and PMSF 10 mg/ml). After sonication in the extraction buffer at 4° C., the homogenised products are ultracentrifuged (100,000 g with 3,5-di-tert.butyl-4-hydroxybenzoic acid 4° C. for 1 h). The protocol is then identical to that of cerebellum NO synthase except for the composition of the incubation buffer (100 mM of HEPES, pH 7.4, 1 mM dithiothreitol, 2.5 mM of CaCl2, 10 M of tetrahydrobiopterin, FAD 10 μM, BSA 1 mg/ml, 2 mM of reduced NADPH). […]

inducible NO synthase [2] = target: T1, inducible NO synthase; test: In vitro effect on the production of nitrites by murine macrophages J774A1; type: cell-based; details: J774A1 cells, LPS 1 μg/ml + IFN-γ 50 U/ml, 48 hours; read-out: IC50 Inducible NO synthase (formation of nitrites)
Procedure: 3) In vitro effect on the production of nitrites by murine macrophages J774A1
This test is used to measure the inhibitory activity of the products on inducible NO synthase of culture cells. The cells are cultivated in DMEM medium (Dulbecco's Modified Eagle Medium) enriched with 10% foetal calf serum at 37° C. under an atmosphere of 5% CO2. For the experiments, they are distributed in 96-well plates (50,000 cells per well) and incubated in DMEM without phenol red containing 10% foetal calf serum with LPS (1 μg/ml) and murine IFN-γ(50 U/ml) in the presence or absence of the products to be tested. After 48 hours, the concentration of nitrites in the culture media, degradation products of nitrogen monoxide, is measured by a colorimetric method according to Green et al. (Analytical Biochemistry, 126, 131-138 (1982)). The results are expressed in terms of the IC50 value and are summarised in the table of paragraph 2 (third column of results entitled "inducible NO synthase, formation of nitrites").

O=[N+]([O-])c1cccc2cn[nH]c12 [Example 2 A, 7-nitroindazole]
IC50 (inducible NO synthase [1]): 25 µM
IC50 (inducible NO synthase [2]): 51 µM
